Measured values taken from US6632977B2 (priority 1996, dated 2003).
Where two headings read alike, the source gives them in different places. Only a part of the results on these compounds is given; other tests are left out.

Protein sequences, listed by entry. Tags and fused reporters are not part of them.
UniProt P33534, whole entry: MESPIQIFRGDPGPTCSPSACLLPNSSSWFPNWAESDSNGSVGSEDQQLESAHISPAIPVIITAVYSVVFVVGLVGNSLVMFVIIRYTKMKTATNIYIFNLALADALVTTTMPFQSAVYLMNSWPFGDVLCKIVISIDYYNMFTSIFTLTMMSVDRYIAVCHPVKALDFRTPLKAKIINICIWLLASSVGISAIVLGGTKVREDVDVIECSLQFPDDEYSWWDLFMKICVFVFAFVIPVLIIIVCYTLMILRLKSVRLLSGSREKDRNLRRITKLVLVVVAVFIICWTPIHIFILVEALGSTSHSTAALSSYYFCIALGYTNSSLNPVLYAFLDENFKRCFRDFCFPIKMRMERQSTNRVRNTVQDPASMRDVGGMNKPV

Tests used:
κ receptor [1] = molecular target: T1, κ receptor (Mus musculus, UniProt P33534); assay: Autoradiography of brain sections labelled with [3H]CI977; conditions: heterozygous kappa mice
κ receptor [2] = molecular target: T1, κ receptor; assay: Saturation binding of [3H]CI977 to whole brain membrane proteins (Scatchard)
κ receptor [3] = assay: as above; conditions: kappa receptor gene line, homozygous −/−

(−)-5b,7b,8a)-3,4-dichloro-N-methyl-N-[7-(1-pyrrolidinyl)-1-oxaspiro[4,5]-dec-8-yl]benzo[b]furan-4-acetamide
reduction of binding sites of the kappa receptor in brain sections (κ receptor [1]): 50%
Kd (κ receptor [2]; [3H]CI977, μ receptor gene line, heterozygous +/−): 0.198 nM
Kd (κ receptor [2]; [3H]CI977, μ receptor gene line, homozygous −/−): 0.211 nM
Kd (κ receptor [2]; [3H]CI977, μ receptor gene line, wild +/+): 0.214 nM
binding curves (Scatchard) compared between genotypes (κ receptor [2]; brains of +/+, +/− and −/− MOR mice): superimposable
CI977 Bmax (κ receptor [2]; kappa receptor gene line, heterozygous +/−): 0.020 pmole/mg proteins
CI977 Bmax (κ receptor [2]; kappa receptor gene line, wild +/+): 0.040 pmole/mg proteins
Kd (κ receptor [2]; read-out: CI977 Kd, kappa receptor gene line, heterozygous +/−): 0.173 nM
Kd (κ receptor [2]; read-out: CI977 Kd, kappa receptor gene line, wild +/+): 0.137 nM
reduction of the binding sites of the kappa receptor (κ receptor [2]; whole brain homogenates, heterozygous kappa animals): 50%
CI977 Kd (κ receptor [3]): undetect-
